Key:
[1] = target: Tyrosine-protein kinase Lck (Homo sapiens, UniProt P06239)
Homo sapiens = species: Homo sapiens; assay: Protein binding in human plasma; conditions: read-out: PB (converted)

Protein sequences, listed by entry. Tags and fused reporters are not part of them. Lines headed by an entry give the natural chain unless they say otherwise; changes in a name come on top.
UniProt P06239: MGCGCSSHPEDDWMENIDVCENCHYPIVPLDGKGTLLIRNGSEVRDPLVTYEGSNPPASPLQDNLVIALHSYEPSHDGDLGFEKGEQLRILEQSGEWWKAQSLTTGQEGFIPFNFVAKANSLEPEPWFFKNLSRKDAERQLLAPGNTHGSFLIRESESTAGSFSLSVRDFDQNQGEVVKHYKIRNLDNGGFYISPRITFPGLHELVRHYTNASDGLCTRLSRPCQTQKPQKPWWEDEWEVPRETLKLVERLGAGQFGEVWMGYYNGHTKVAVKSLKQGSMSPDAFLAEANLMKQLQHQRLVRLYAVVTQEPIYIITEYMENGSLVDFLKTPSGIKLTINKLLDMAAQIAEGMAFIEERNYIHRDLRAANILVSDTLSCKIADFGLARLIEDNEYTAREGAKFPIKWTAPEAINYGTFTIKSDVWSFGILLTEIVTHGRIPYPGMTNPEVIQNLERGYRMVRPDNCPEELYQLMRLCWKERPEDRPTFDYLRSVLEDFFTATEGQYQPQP

IC50 [1] [nM]	fraction unbound (Homo sapiens)	SMILES
239	–	Cc1ccc(NC(=O)c2cccc(C(F)(F)F)c2)cc1C(=O)Nc1cncnc1
–	0.042	Cc1ccc(NC(=O)c2ccc3c(c2)OC(F)(F)O3)cc1C(=O)Nc1cnc(Nc2ccc(N3CCN(C)CC3)cc2)nc1
–	0.032	COc1cc(OC)cc(C(=O)Nc2ccc(C)c(C(=O)Nc3cnc(Nc4ccc(N5CCN(C)CC5)cc4)nc3)c2)c1
–	0.036	Cc1ccc(NC(=O)c2cc(F)cc(C(F)(F)F)c2)cc1C(=O)Nc1cnc(Nc2ccc(N3CCN(C)CC3)cc2)nc1
